Test results published in patent US4201725A, “Secondary amines” (priority 1974, dated 1980).

Key:
[1] = tested on: neuroleptic-induced catatonia; test: Suppression of neuroleptic (prochlorperazine)-induced catatonia (curative treatment); assay type: in vivo, rat (male, OFA strain); conditions: times more active than amantadine
Protocol: Batches of 5 male rats of the OFA strain were given 12.5 mg/kg of prochlorperazine by intraperitoneal route. Fifty-five minutes later, an oral dose in aqueous solution of the compound to be studied was administered to all the animals with the exception of the control group. The progress of the catatonia was noted following the same scale as that used in the tests described above.

[2] = tested on: reserpine-induced catatonia; test: Suppression of reserpine-induced catatonia (curative treatment); assay type: in vivo, rat (male, OFA strain); conditions: times more active than amantadine
Protocol: Batches of 5 male rats of the OFA strain, weighing 150 to 200 g were given 5 mg/kg of reserpine by intraperitoneal route. One hour and 45 minutes later, namely when the animals were in a state of catatonia, an aqueous dose of the compound to be studied was administered by oral route to all the animals with the exception of the control group.
The progress of the catatonia was then noted following the scale used in the tests described hereabove.
The maximum score was thus 5 per batch which means that all the animals of the batch were considered to be still in a state of catatonia.

[3] = tested on: reserpine-induced catatonia; test: Inhibition of reserpine-induced catatonia (preventive, oral compound 30 min before reserpine); assay type: in vivo, rat (male, OFA strain)
Protocol: After sufficient doses of reserpine have been administered to the rat, a series of symptoms occur, more particularly ptosis, catatonia and a drop in central temperature. These symptoms are caused by the depletion of the intragranular reserve pool of biogenetic amines at the synaptic terminals.
An oral dose of the compound to be studied in aqueous solution was administered to batches of 10 male rats of the OFA strain weighing about 150 to 200 g. Thirty minutes later a dose of 5 mg/kg of reserpine was given by intraperitoneal route. Three hours after the injection of reserpine, the animals were suspended by the four paws to a horizontally stretched wire fixed at 15 cm from the ground. The catatonia animals were those which maintained the position so given for at least 30 seconds. […] The maximum score was therefore 10 per batch. An identical trial was undertaken with control animals which received reserpine but none of the compounds being studied.

[4] = tested on: neuroleptic-induced catatonia; test: Inhibition of neuroleptic (prochlorperazine)-induced catatonia (preventive); assay type: in vivo, rat (male, OFA strain); conditions: times more active than amantadine
Protocol: The blocking of dopaminergic receptors by neuroleptics in the extra-pyramidal system induces catatonia in the rat. Catatonia is differentiated from sedative properties by means of the test used hereabove for reserpine-induced catatonia. The same system of scoring was also employed in the present case.
An oral dose of the compound to be studied in aqueous solution was administered to batches of 10 male rats of the OFA strain weighing about 150 to 200 g.
Three hours after the injection of this latter compound, catatonia was measured. An identical trial was also carried out with control animals which received prochlorperazine but none of the compounds under study.
The scoring system used was that given hereabove for Table I.

Tremor-inducing action = conditions: 0.031 m mol/kg oral, 30 min, hydrochloride form

## CCCC(N)(CCC)CCC [Compound 1]
[1]
  activity relative to amantadine, curative, neuroleptic-induced catatonia: at least 16 times
[2]
  activity relative to amantadine, curative, reserpine-induced catatonia: at least 32 times
[3]; 0.031 m mol/kg oral, hydrochloride form
  index of reserpine-induced catatonia (numerator of ratio): 4 (represents 100% inhibition of catatonia in comparison with the controls)
[3]; dose ratio to amantadine, equal effect
  activity relative to amantadine, reserpine-induced catatonia: twenty times
[4]
  activity relative to amantadine, neuroleptic-induced catatonia: twenty times more active
Tremor-inducing action; batches of 10 rats
  number of animals presenting tremors (denominator of ratio): 10
Tremor-inducing action
  ratio of index of reserpine-induced catatonia inhibition to number of animals presenting tremors: 0.40
